Drawing on PubChem BioAssay AID1259313 (Sanford-Burnham Center for Chemical Genomics, 2017), this text covers Tm shift relative to glycine control for 50 compounds.

The entries are a selection whose mix differs from that of the whole data set. Calls of active or inactive are those of the source.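 The calls were made as follows: active = melting temperature shift of at least 10% of the positive control shift, at one fixed dose; inactive = the rest.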

The subject of the assay is Glutamate receptor ionotropic, NMDA 3A (GRIN3A) ligand-binding domain. As to the kind of experiment: NR3A LBD thermal stabilization by compounds – biophysical, differential scanning fluorimetry, uHTS, primary screen (AID 1259313). Particulars: at 25 µM, active compounds read high, 0% = protein alone, 100% = glycine-bound protein. Background: Differential scanning fluorimetry follows unfolding on heating by fluorescence.
In the case of `O=[N+]([O-])c1ccc(O)c(/C=N/Nc2ccc([N+](=O)[O-])cc2[N+](=O)[O-])c1`, the Tm shift relative to glycine control is inactive: 1.64%.

Take `O=[N+]([O-])c1ncn(CCn2cnc([N+](=O)[O-])n2)n1`: the Tm shift relative to glycine control is inactive: 0.31%.

As to `CC(=O)NC(SC(=S)N(C)C)C(Cl)(Cl)Cl` (stereo not given), the Tm shift relative to glycine control is inactive: -0.17%.

As to `O=[As](O)(c1ccccc1)c1ccc(O)cc1`, the Tm shift relative to glycine control was inactive: -0.16%.

For `Nc1ccc([As](=O)(O)c2ccc([N+](=O)[O-])cc2)cc1`, the Tm shift relative to glycine control is inactive: -1.68%.

As for `C(Cc1nn[nH]n1)Cc1nn[nH]n1`, the Tm shift relative to glycine control is inactive: -3.48%.

Consider `O=C(OC1CN2CCC1CC2)c1cccc(Cl)c1` (stereo not given), for which the Tm shift relative to glycine control was inactive: 0.6%.

On to `COc1ccc(N)c([N+](=O)[O-])c1[N+](=O)[O-]`, for which the Tm shift relative to glycine control is inactive: 4.15%.

As for `O=P(Nc1ccccn1)(c1ccc(Br)cc1)c1ccc(Br)cc1`, the Tm shift relative to glycine control was inactive: -4.54%.

`CN(C)C1(CNC(=O)c2ccc(Cl)c(S(N)(=O)=O)c2)CCCCC1`: the Tm shift relative to glycine control is inactive: -2.02%.

As for `O=P(Nc1nc2ccccc2s1)(c1ccccc1)c1ccccc1`, the Tm shift relative to glycine control is inactive: -0.16%.

On to `C[C@H]1OP(=O)(Oc2ccccc2)[C@H](O)[C@H](O)[C@H]1N=[N+]=[N-]` (stereo not given in full), for which the Tm shift relative to glycine control was inactive: 0.9%.

Turning to `CC(C)C(=O)NC(Sc1ccccc1)C(Cl)(Cl)Cl` (stereo not given), the Tm shift relative to glycine control was inactive: 3.57%.

As to `O=P(Nc1nccs1)(c1ccccc1)c1ccccc1`, the Tm shift relative to glycine control was inactive: 0.7%.

In the case of `c1nnnn1CCn1cnnn1`, the Tm shift relative to glycine control is inactive: 3.15%.

With `N#C/C(=C\c1ccc(N(CCBr)CCBr)cc1)C(N)=O`, the Tm shift relative to glycine control was inactive: -1.65%.

As for `CC(=O)c1ccc(N2CC2c2ccncc2)cc1` (stereo not given), the Tm shift relative to glycine control was inactive: 2.18%.

In the case of `COC(=O)C1(C)COP(=O)(NCc2ccccc2)OC1` (stereo not given), the Tm shift relative to glycine control was inactive: 1.28%.

For the compound `Cc1ccccc1CN(C)C(=O)COC(=O)C(O)(c1ccccc1)c1ccccc1`, the Tm shift relative to glycine control was inactive: -0.33%.

`C[C@@H]1C=CCP(=O)(Oc2ccccc2)O1` (stereo not given in full): the Tm shift relative to glycine control was inactive: 0%.

As to `C[C@H]1OP(=O)(Oc2ccccc2)C[C@@H]2O[C@@H]21` (stereo not given in full), the Tm shift relative to glycine control is inactive: 0.9%.

`CC(=O)Nc1ccc([As](=O)(O)O)c(O)c1`: the Tm shift relative to glycine control is inactive: -0.86%.

As for `CC(=O)Nc1ccc(Oc2c([N+](=O)[O-])cc([N+](=O)[O-])cc2[N+](=O)[O-])cc1`, the Tm shift relative to glycine control is inactive: -19.9%.

As for `O=P1(Nc2nc3ccc(Cl)cc3s2)COc2ccccc2O1` (stereo not given), the Tm shift relative to glycine control is inactive: 1.15%.

`CCOc1ccc(C2=NCC(CBr)S2)cc1` (stereo not given): the Tm shift relative to glycine control was inactive: 0.31%.

As to `CCc1cc(O)c([N+](=O)[O-])c(C)c1[N+](=O)[O-]`, the Tm shift relative to glycine control was inactive: 2.42%.

As for `CC(C)(C)C(=O)NC(Sc1ccccc1)C(Cl)(Cl)Cl` (stereo not given), the Tm shift relative to glycine control is inactive: 0.4%.

In the case of `COC(=O)c1cc2c(s1)N=C(c1ccccc1)N(C)P2(=O)N1CCOCC1` (stereo not given), the Tm shift relative to glycine control is inactive: 3.51%.

Take `Cc1ccc(OP(=O)(Nc2ccccn2)Oc2ccc(C)cc2)cc1`: the Tm shift relative to glycine control is inactive: -0.6%.

As to `CC(=O)NC(SC(=S)N(CC(C)C)CC(C)C)C(Cl)(Cl)Cl` (stereo not given), the Tm shift relative to glycine control is inactive: -0.92%.

Consider `O=C(OC1CN2CCC1CC2)c1ccccc1` (stereo not given), for which the Tm shift relative to glycine control was inactive: -1.09%.

`CCC(=O)N1C2C3N(C(=O)CC)C1C1N(C(=O)CC)C(C(N1C(=O)CC)N3C(=O)CC)N2C(=O)CC`: the Tm shift relative to glycine control was inactive: -0.64%.

`Cc1ccccc1OP(=O)(Nc1ccccn1)Oc1ccccc1C`: the Tm shift relative to glycine control is inactive: 0.19%.

Turning to `CC(NC(=O)COC(=O)C(O)(c1ccccc1)c1ccccc1)c1ccccc1` (stereo not given), the Tm shift relative to glycine control is inactive: -0.17%.

With `CN(C)C(=O)Oc1noc2ccccc12`, the Tm shift relative to glycine control was inactive: 1.98%.

`O=c1c2cc([N+](=O)[O-])ccc2[nH]c2c([N+](=O)[O-])cc([N+](=O)[O-])cc12`: the Tm shift relative to glycine control was active: 25.1%.

With `CCNC(=S)/N=C(\N)N[N+](=O)[O-]`, the Tm shift relative to glycine control was inactive: 2.54%.

With `O=C(NC1CCS(=O)(=O)C1)NP(=S)(Oc1ccccc1)Oc1ccccc1` (stereo not given), the Tm shift relative to glycine control was inactive: 2.02%.

For the compound `c1ccc(-c2nn[nH]n2)c(-c2nn[nH]n2)c1`, the Tm shift relative to glycine control was inactive: -2.16%.

For `Cc1ccc(NP(=O)(Oc2cccc(C)c2)Oc2cccc(C)c2)nc1`, the Tm shift relative to glycine control is inactive: 2.25%.

Take `O=P1(N(CCCl)CCCl)OCCC2CCCCN21` (stereo not given): the Tm shift relative to glycine control is inactive: -2.95%.

`CCN(N=Nc1nonc1N)c1nonc1N`: the Tm shift relative to glycine control is inactive: -2.23%.

For `Nc1cccc2ccc([As](=O)(O)O)cc12`, the Tm shift relative to glycine control is inactive: 4.86%.

For `O=C(O)c1ccccc1[As](=O)(O)O`, the Tm shift relative to glycine control was inactive: -0.4%.

Regarding `CCCC1OP(N)(=O)OCC1CC` (stereo not given), the Tm shift relative to glycine control was inactive: -0.77%.

`O=P(Nc1nc2ccc(Cl)cc2s1)(c1ccccc1)c1ccccc1`: the Tm shift relative to glycine control was inactive: -0.3%.

Take `CCOP(=O)(Nc1ccccc1)OCC`: the Tm shift relative to glycine control is inactive: -0.68%.

In the case of `Cc1cc(SC(NC(=O)c2ccc(F)cc2)C(Cl)(Cl)Cl)ncn1` (stereo not given), the Tm shift relative to glycine control is inactive: 0.44%.

For `Cc1ccc(NP(=O)(Oc2ccccc2F)Oc2ccccc2F)nc1`, the Tm shift relative to glycine control was inactive: -0.2%.

For `CC(C)CC(=O)NC(Sc1ccc(Cl)cc1)C(Cl)(Cl)Cl` (stereo not given), the Tm shift relative to glycine control was inactive: -0.54%.
